miR-21 reporter: miR-21 reporter, rising signal; HeLa miR-21 FLuc reporter, luciferase, 48 h; Potency, µM (highest dose often 38.3 µM), for the others: top-dose reporter change, positive = more light; 340,000 tested, under 10 active; AID 2288; active = well fitted rising curve with a large enough effect; inconclusive = small, poorly fitted or top-dose-only effect; inactive = no such curve, though single readings can be large or run the other way;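 further: % of control where 0% means no effect; miR-21 action dims this reporter so a rising signal means less miR-21 action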
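Using DMEM plus 10% FBS, HeLa miR-21-FLuc cells are incubated with test compounds (final up to about 40uM) for 48 hours; firefly luciferase signal is then imaged following reagent-mediated lysis.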
Nrf2 ARE act: activators of Nrf2 (ARE) signaling; AID 624171; Potency, µM (series often up to 46.1 µM), without a hit: at the top dose activation, actives largely listed as activators; 410,000 compounds, 0.31% hits; AREc32 ARE-luciferase reporter (MCF7-derived line), luminescence, 24 h; also: potency is read from the fitted curve at half-maximal effect; % of control where 0% means no effect; nearly all actives have a fitted effect of over 65% in size
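Quantitative high-throughput format: AREc32 reporter cells, 1000 per well, received compound by pin transfer and were incubated 24 hr at 37 deg C, 5% CO2, before Steady-Glo luminescence detection.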
Nrf2 block: blocks Nrf2 signaling; A549 ARE-Fluc reporter, luciferase luminescence, 18-24 h; Potency, µM (titrated, usually from 46 µM), inactives show at the highest dose activity change, negative = inhibition, actives largely listed as inhibitors; 360,000 compounds, 2.1% hits; also: potency is read from the fitted curve at half-maximal effect; % is scaled to controls: 0 for no effect and ±100 for the full control effect; nearly all actives have a fitted effect of over 60% in size
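In this cell-based qHTS, ARE-driven firefly luciferase in A549 cells reports Nrf2 activity; the luminescent signal after BugLite lysis is the measured value, with a prior CellTiter-Fluor read for cell health.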
A549 viability: kills or reduces viability of A549 cells in Nrf2 counter-screen | Potency, µM (highest dose often 46 µM), without a hit: at the top dose activity change, negative = cytotoxicity, usual class: inhibitors | A549 ARE-Fluc cells, CellTiter-Fluor viability, 18-24 h | 390,000 compounds, 0.16% hits; also: potency is read from the fitted curve at half-maximal effect; % is scaled to controls: 0 for no effect and ±100 for the full control effect
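A549 ARE-Fluc cells in 5% FBS OPTI-MEM, 5000 cells/well, rested 2 h then exposed to compounds in concentration-response for 18-24 h at 37 °C. Viability by CellTiter-Fluor fluorescence (Ex 405/Em 525) after 30 min; luciferase luminescence (BugLite, 15 min, RT) read afterwards.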
Glioma ERSR ind: inducers of ER stress response in human glioma cells; Potency, µM, for the others: top-dose activation, hits mostly activators; 420,000 compounds, 0.02% hits; U87-MG GRP78 promoter luciferase reporter, 16 h; also: potency is read from the fitted curve at half-maximal effect; series mostly up to about 76 µM; % of control where 0% means no effect; nearly all actives have a fitted effect of over 35% in size
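Stably transfected U87-MG human glioma cells carrying a GRP78-based luminescent sensor were seeded at 1000 cells/well, pin-dosed with compounds and incubated 16 h. Luciferase reagent was then added, and end-point luminescence was read after 10 min at room temperature.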
TSG101-PTAP inh: blocks PTAP/TSG101 interaction to inhibit HIV-1 budding. Potency, µM (titrated, usually from 115 µM), for the others: at the top dose activity change, negative = inhibition, usual class: inhibitors. Q99816. Fluorescence polarization, FITC-PTAP peptide / Tsg101 binding. 340,000 tested, under 10 active. AID 493005; active = well fitted inhibition curve with a large enough effect in the main read-out, with a control signal flat, not every such curve was filed as active; inconclusive = small, poorly fitted or top-dose-only effect, or effect the other way, or a change in a side signal; inactive = no such curve, though single readings can be large or run the other way; also: potency is read from the fitted curve at half-maximal effect; % of control where 0% means no effect
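Fluorescence polarization binding of Tsg101 binding domain (10 uM final) to FITC-labeled PTAP peptide (50 nM final) in HEPES pH 7.5 buffer with NaCl, Tween 20, EDTA, TCEP. Compounds added before peptide; binding 20 min at RT.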
* marks the source's active call; other numbers are inactive results; ? = inconclusive; . = not tested or not shown; [ ] = another dose, or the depositor's remark. In the library only some 2.1% were active in any assay of this set; here they are far more common. Unless noted, calls follow the shape of the dose curve; as a rule, active = well fitted curve in the direction sought with a large enough effect; inconclusive = small, poorly fitted or top-dose-only effect, or another doubt; inactive = no such curve, though single readings can be large; an effect the other way counts as inactive or inconclusive.

Key to letters – A = miR-21 reporter; B = Nrf2 ARE act; C = Nrf2 block; D = A549 viability; E = Glioma ERSR ind; F = TSG101-PTAP inh
COc1ccccc1N(C(=O)c1snc(C(N)=O)c1N)C(C(=O)NCCC(C)C)c1ccco1 (stereo not given)
  A: -1.8%; B: -0.8%; C: ?; D: -1.4%[1.84 µM]; E: 0.6%; F: -5.1%

CCSc1nnc(C(C)NC(=O)c2ccc(OC)cc2)n1C (stereo not given)
  A: .; B: .; C: .; D: .; E: -2.2%; F: .

CC(=O)Nc1ccc(C(=O)Nc2ccc(S(=O)(=O)NCC3CCCO3)cc2)cc1 (stereo not given)
  A: -5.0%; B: -0.1%; C: 1.5%; D: 2.6%; E: -1.9%; F: -3.2%

O=S(=O)(NCc1ccncc1)c1ccc(S(=O)(=O)NCC2CCCO2)cc1 (stereo not given)
  A: 7.1%; B: 0.4%; C: 9.2µM*; D: -3.9%; E: -3.2%; F: -4.7%

CCCCNS(=O)(=O)c1ccc(S(=O)(=O)NCc2ccncc2)cc1
  A: 11.6%; B: -0.3%; C: 7.31µM*; D: -16.0%; E: -4.0%; F: 0.2%

O=C(c1ccc(S(=O)(=O)NCC2CCCO2)cc1)N1CCc2ccccc21 (stereo not given)
  A: 13.9%; B: -0.6%; C: 25.9µM*; D: -21.7%; E: 1.3%; F: -4.1%

O=S(=O)(NCC1CCCO1)c1ccccc1 (stereo not given)
  A: -0.2%; B: -1.0%; C: 4.7%; D: -2.2%; E: -2.1%; F: 1.6%

O=C(Nc1ccc(F)cc1)c1ccc(S(=O)(=O)NCC2CCCO2)cc1 (stereo not given)
  A: 16.9%; B: -0.5%; C: 23.1µM*; D: 23.1µM*; E: -3.4%; F: -1.5%

CCCCc1ccc(S(=O)(=O)NCCc2ccncc2)cc1
  A: 11.5%; B: 0.0%; C: .; D: -2.1%; E: -6.1%; F: -2.7%

COc1ccc(/C=C/C(=O)NCC2Cc3cc(Cl)cc(-c4ncccn4)c3O2)cc1 (stereo not given)
  A: .; B: .; C: .; D: .; E: -4.1%; F: .

COc1ccc(C2Cc3ccccc3C(=O)N2Cc2ccccc2)cc1COc1ccc(NC(C)=O)cc1 (stereo not given)
  A: .; B: .; C: -26.2%; D: -1.1%; E: .; F: .

O=C1NC(=S)S/C1=C\c1cc2ccccc2nc1N1CCCCC1
  A: -5.7%; B: -1.0%; C: 20.6µM*; D: -28.1%; E: -1.4%; F: 4.0%

CCCCC(OC(=O)CNC(=O)c1ccccc1)C(=O)Nc1cc(C(F)(F)F)ccc1Cl (stereo not given)
  A: .; B: .; C: ?; D: 8.2%; E: .; F: .

O=C(NCCc1nnc2n1CCN(Cc1ccc(F)cc1)CC2)c1ccco1
  A: .; B: .; C: .; D: .; E: -0.5%; F: .

Cc1ccccc1N=Nc1ccc(O)c2ncccc12
  A: ?; B: 9.3%; C: -21.1%; D: -17.3%; E: -1.2%; F: -1.9%

Entries listed so far that contain an aryl methoxy group, in the order listed:
Key to letters – A = miR-21 reporter; B = Nrf2 ARE act; C = Nrf2 block; D = A549 viability; E = Glioma ERSR ind; F = TSG101-PTAP inh
COc1ccccc1N(C(=O)c1snc(C(N)=O)c1N)C(C(=O)NCCC(C)C)c1ccco1 (stereo not given)
  A: -1.8%; B: -0.8%; C: ?; D: -1.4%[1.84 µM]; E: 0.6%; F: -5.1%

CCSc1nnc(C(C)NC(=O)c2ccc(OC)cc2)n1C (stereo not given)
  A: .; B: .; C: .; D: .; E: -2.2%; F: .

COc1ccc(/C=C/C(=O)NCC2Cc3cc(Cl)cc(-c4ncccn4)c3O2)cc1 (stereo not given)
  A: .; B: .; C: .; D: .; E: -4.1%; F: .

COc1ccc(C2Cc3ccccc3C(=O)N2Cc2ccccc2)cc1COc1ccc(NC(C)=O)cc1 (stereo not given)
  A: .; B: .; C: -26.2%; D: -1.1%; E: .; F: .

Remaining list, next part:
Molecule,miR-21 reporter,Nrf2 ARE act,Nrf2 block,A549 viability,Glioma ERSR ind,TSG101-PTAP inh
O=Nc1ccc(O)c2ncccc12,?,?,?,?,-11.8%,-5.6%
COc1cccc(N=Nc2ccc(O)c3ncccc23)c1,-11.2%,11.2µM*,?,?,4.3%,-2.0%
O=S(=O)(O)c1cccc2c(N=Nc3ccc(O)c4ncccc34)cccc12,6.3%,-0.7%,-39.2%,11.6µM*,-5.4%,-3.3%
COc1cccc(N=Nc2ccc3cccnc3c2O)c1,-5.7%,-1.3%,-23.6%,-19.0%,-3.8%,-4.5%
COc1ccc(N=Nc2ccc(O)c3ncccc23)cc1,-0.1%,?,11.6µM*,?,0.3%,0.2%
Cc1ccnc2c(N)cccc12,.,.,.,.,2.6%,.
O=C(c1ccc2c(c1)N(Cc1ccc(F)cc1)CCS2)N1CCN(c2ccccc2)CC1,?,0.6%,20.6µM*,?,0.2%,.
Cc1ccc(CN2CCSc3ccc(C(=O)N4CCN(c5ccccc5)CC4)cc32)cc1,1.1%,0.0%,-0.7%,9.1%,-2.2%,.
CCOC(=O)N1CCC(NC(=O)c2ccc3c(c2)N(C)C(=O)/C(=C/c2cccc(OC)c2)S3)CC1,-0.4%,-0.4%,16.4µM*,8.4%,1.3%,0.0%
CCOC(=O)N1CCC(NC(=O)c2ccc3c(c2)N(Cc2ccc(F)cc2)CCS3)CC1,-5.4%,-0.5%,25.9µM*,-12.8%,-5.2%,-2.6%
CCOC(=O)N1CCC(NC(=O)c2ccc3c(c2)N=C(C)c2ccccc2S3)CC1,17.8%,2.5%,20.6µM*,-4.5%,-4.2%,-5.7%
COc1cccc(N2C(=O)c3ccccc3C2=O)c1,.,.,6.3%,8.2%,.,.

Screening results from PubChem.
